According to patent US7399746B2, “Agents for wound healing” (McGill University, priority 2004, dated 2008):

Assays:
[1] = test system: LLC-PK1 cells, a porcine kidney epithelial cell line; test: in vitro wound healing, monolayer of kidney epithelial cells; format: cell-based; details: FIG. 1A
Procedure: (§1) Wound healing was measured using an art-established monolayer cell culture method (Nwomeh, et al. (1998) supra). Cells to be studied were plated in 48-well tissue culture plates at a cell density appropriate for obtaining confluent monolayers after one day in culture. Circular wounds were made in the center of the wells by placing a siliconized 200 μL tip into the well and lifting the cells from the plastic by applying suction. The successful creation of wounds was analysed using a phase contrast microscope. Cells were subsequently treated with control media or media containing the factors to be tested. The size of the wounds was immediately recorded for each well. […] After one or two days in culture (depending on the cells studied), the size of the wounds was measured again. Wound dimensions were evaluated with a Leica MZFL11 stereo microscope. Computer images of the wounds were recorded with imaging software and contours of each wound before and after treatment were traced manually. Collections of contours for all wounds were converted to BMP files and quantitated using the Band-Leader program. The results were expressed as % reduction of wounds taking as 100% the reduction obtained in control cell cultures. […] In these experiments, wound closure was being analysed, independent of the mechanism involved. […]

[2] = test system: primary human skin fibroblasts; test: in vitro wound healing, monolayer of skin fibroblasts; format: cell-based; details: FIG. 1B
Procedure: as §1

human skin keratinocytes = test: in vitro wound healing, monolayer of skin keratinocytes; format: cell-based; details: FIG. 1C
Procedure: as §1

[3] = test system: human skin fibroblast cultures; test: cell proliferation, Alamar blue, skin fibroblasts; format: cell-based; details: two days, FIG. 2B
Procedure: The effects of IGF-API, API and C26 on cell proliferation were also evaluated using the art-established Alamar blue technique developed for hematopoietic cells or endothelial cells (DiFalco, et al. (1997) Biochem. J. 326:407-13; DiFalco & Congote (2002) Cytokine 18 (1):51-60; Sandoval, et al. (2002) supra). Five thousand cells per well were plated in 96-well plates and grown over night in complete cell culture medium. The cells were subsequently starved for one day in serum-free medium supplemented with 5 μg/mL bovine transferrin and 200 μg/mL fatty-acid free, tissue culture-tested, bovine serum albumin and incubated for two days in the presence of the API derivatives indicated. For experiments with the hepatoma cell line, Hep G2, only 3000 cells were plated per well.

[4] = test system: skin wounds of normal C57BL/6 mice; test: in vivo skin wound healing, normal mice; details: normal mouse, 100 nM in PBS, first 5 days after wounding, topical 50 μL, FIG. 4A
From the text: (§2) The methodology for the preclinical studies was based on procedures described in similar experiments by Brown, et al. ((1994) J. Surg. Res. 56(6):562-70). Normal adult female C57BL/6 mice or C57BL/KsJ-db/db genetically diabetic mice (Jackson Laboratories, West Grove, Pa.) were anaesthetized with Ketamine-Xylazine-Acetopromazine. The backs were shaved, washed with povidone-iodine solution and wiped with sterile water. Two 1-cm^2 full thickness wounds were created on the back. After wounding, Tincture Benzoin compound was applied to the edges of the wounds. A semipermeable, transparent polyurethane dressing (OPSITE®) was placed over the wound and the edges were sealed with the benzoin. At the time of wounding, the healing factors were applied once daily for the first 5 days or at days 0, 1, 2, 3 and 5. IGF-API was dissolved in sterile phosphate-buffered saline (PBS) at the doses indicated in FIG. 4 and 50 μL of the solutions were applied with a 30-gauge needle beneath the OPSITE®) dressing. The liquid was allowed to spread over the wound. The control wound received 50 μL of PBS alone. The edges of epithelial migration were serially traced onto household plastic wrap at days 0, 3, 7, 9 or 11 and the areas of the traced wounds were scanned and measured with an imaging program (measurements of wound closure).

[5] = test system: skin wounds of C57BL/KsJ-db/db genetically diabetic mice; test: in vivo skin wound healing, diabetic mice; details: diabetic mouse, 1 μM at days 0, 1, 2, 3 and 5 after wounding, topical 50 μL, FIG. 4B
From the text: as §2

B1: IGF-API: IGF I-API fusion protein (SEQ ID NO:3): human IGF-I, poly-glycine linker, API mutated at positions 351 and 358, hexa-histidine tag (protein)
chain: [sequence of about 80 residues not given]GGGSGGGGGGGGGHGLAEDPQGDAAQKTDTSHHDQDHPTFNKITPNLAEFAFSLYRQLAHQSNSTNIFFSPVSIATAFAMLSLGTKADTHDEILEGLNFNLTEIPEAQIHEGFQELLRTLNQPDSQLQLTTGNGLFLSEGLKLVDKFLEDVKKLYHSEAFTVNFGDTEEAKKQINDYVEKGTQGKIVDLVKELDRDTVFALVNYIFFKGKWERPFEVKDTEEEDFHVDQVTTVKVPMMKRLGMFNIQHCKKLSSWVLLMKYLGNATAIFFLPDEGKLQHLENELTHDIITKFLENEDRRSASLHLPKLSITGTYDLKSVLGQLGITKVFSNGADLSGVTEEAPLKLSKAVHKAVLTIDEKGTEAAGAEFLEAIPLSIPPEVKFNKPFVFLMIEQNTKSPLFMGKVVNPTQKEHAHHHHHH
modifications: Synthetic fusion protein
Q: B1 was tested. Which “concentration at which effective/active in wound reduction” value [1] did it give?
A: lower than 0.1 nM

Q: What about the “wound reduction (wound healing)” value ([1]; serum-free medium, one day) of the same molecule?
A: most effective compound

Q: What about the “concentration with significant effect on wound reduction” value [2] of the same molecule?
A: 8 to 20 nM

Q: And the wound reduction ([2]; serum-free medium, two days)?
A: most active compound

Q: And the “concentration with effect on wound reduction” value (human skin keratinocytes)?
A: lower than 0.1 nM

Q: What about the wound reduction (human skin keratinocytes) of the same molecule?
A: most active compound

Q: And the cell proliferation [3]?
A: significance increase in cell proliferation

Q: What about the “wound healing (% closure of the wounds)” value [4] of the same molecule?
A: improvement in wound healing

Q: What about the “wound healing (% closure of the wounds)” value [5] of the same molecule?
A: improvement in wound healing
